One assay concerns the target human S1P1 receptor (Homo sapiens, UniProt P21453). Kind of assay: GTPγS assay to determine EC50 values. Conditions: 35S-GTPγS binding, membrane preparations of CHO cells expressing recombinant human S1P1 receptor; agonistic activity. As to the method: GTPγS Assay to Determine EC50 Values
GTPγS binding assays are performed in 96 well microtiter plates (Nunc, 442587) in a final volume of 200 μl, using membrane preparations of CHO cells expressing recombinant human S1P1 receptor. Assay conditions are 20 mM Hepes (Fluka, 54461), 100 mM NaCl (Fluka, 71378), 5 mM MgCl2 (Fluka, 63064), 0.1% BSA (Calbiochem, 126609), 1 μM GDP (Sigma, G-7127), 2.5% DMSO (Fluka, 41644), 50 pM ^35S-GTPγS (Amersham Biosciences, SJ1320). The pH is 7.4. Test compounds are dissolved and diluted in 100% DMSO and pre-incubated at rt for 30 min in 150 μl of the above assay buffer, in the absence of ^35S-GTPγS. After addition of 50 μl of ^35S-GTPγS, the assay is incubated for 1 h at rt. The assay is terminated by transfer of the reaction mixture to a Multiscreen plate (Millipore, MAHFC1H60) using a cell harvester from Packard Biosciences, and the plates are washed with ice-cold 10 mM Na2HPO4/NaH2PO4 (70%/30%), dried, sealed at the bottom and, after addition of 25 μl MicroScint20 (Packard Biosciences, order# 6013621), sealed on the top. Membrane-bound ^35S-GTPγS is measured with a TopCount from Packard Biosciences.
EC50 is the concentration of agonist inducing 50% of the maximal specific ^35S-GTPγS binding. Specific binding is determined by subtracting non-specific binding from maximal binding. Maximal binding is the amount of cpm bound to the Multiscreen plate in the presence of 10 μM of S1P. Non-specific binding is the amount of binding in the absence of an agonist in the assay.

Sequences of proteins named here, by UniProt entry; tags and fusion partners are left off.
UniProt P21453, whole entry: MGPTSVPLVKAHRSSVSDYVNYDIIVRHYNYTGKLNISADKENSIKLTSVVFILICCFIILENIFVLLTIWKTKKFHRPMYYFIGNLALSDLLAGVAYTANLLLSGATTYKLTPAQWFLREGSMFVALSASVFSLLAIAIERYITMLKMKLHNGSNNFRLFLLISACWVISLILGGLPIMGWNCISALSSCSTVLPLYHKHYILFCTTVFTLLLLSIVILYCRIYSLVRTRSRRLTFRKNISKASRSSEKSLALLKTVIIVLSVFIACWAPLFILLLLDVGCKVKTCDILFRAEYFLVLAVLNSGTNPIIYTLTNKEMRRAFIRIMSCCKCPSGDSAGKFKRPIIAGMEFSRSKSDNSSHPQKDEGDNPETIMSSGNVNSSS

A further assay concerns circulating lymphocytes. Nature of the assay: Assessment of in vivo efficacy: circulating lymphocytes after oral administration. Conditions: 6 h after oral administration of 10 mg/kg to normotensive male Wistar rats, compared to vehicle-treated group; mean ± SEM. On the procedure:
Assessment of In Vivo Efficacy
The efficacy of the compounds of formula (I) is assessed by measuring the circulating lymphocytes after oral administration of 3 to 30 mg/kg of a compound of formula (I) to normotensive male Wistar rats. The animals are housed in climate-controlled conditions with a 12 h-light/dark cycle, and have free access to normal rat chow and drinking water. Blood is collected before and 3, 6 and 24 h after drug administration. Full blood is subjected to hematology using Advia Hematology system (Bayer Diagnostics, Zurich, Switzerland).
All data are presented as mean±SEM. Statistical analyses are performed by analysis of variance (ANOVA) using Statistica (StatSoft) and the Student-Newman-Keuls procedure for multiple comparisons. The null hypothesis is rejected when p<0.05.

This passage reports EC50 and Lymphocyte counts results from patent US20110046170A1, “NOVEL PYRIMIDINE-PYRIDINE DERIVATIVES” (priority 2008, published 2011).

Each structure is given as a SMILES string.

In general, EC50 refers to the concentration at which the effect is half-maximal. Regarding `CCCc1cc(-c2nc(-c3cc(C)nc(C)c3)no2)nc(NC)n1`, the EC50 on human S1P1 receptor is 9.8 nM. Consider `Cc1cc(-c2noc(-c3cc(C)nc(N(C)CC(C)C)n3)n2)cc(C)n1`, for which, on human S1P1 receptor, the EC50 came to 7.8 nM. Also, the Lymphocyte counts with circulating lymphocytes is −67 ± 3%. As for `CCNc1nc(C)cc(-c2noc(-c3cc(C)nc(C)c3)n2)n1`, at human S1P1 receptor, the EC50 is 38 nM.

With `Cc1cc(-c2nc(-c3cc(C)nc(NCC(C)C)n3)no2)ccn1`, on human S1P1 receptor, the EC50 was found to be 5890 nM.
